The test concerns the target … foldon collagen model peptide (leucine to proline) (not stated | bacteriophage T4). In words: ELISA; collagen model peptide or collagen XI coated; COMP or TSP-4 at indicated concentrations in TBS-T with 0.25% BSA, 1 h, room temperature; detected with anti-COMP or anti-TSP-4 antibody; four-parameter logistic fit; apparent KD. Background: ELISA stands for enzyme-linked immunosorbent assay.

By UniProt entry, the sequences of proteins in these tests, tags left out. Residues count along the entry.
UniProt P49747, 21-757: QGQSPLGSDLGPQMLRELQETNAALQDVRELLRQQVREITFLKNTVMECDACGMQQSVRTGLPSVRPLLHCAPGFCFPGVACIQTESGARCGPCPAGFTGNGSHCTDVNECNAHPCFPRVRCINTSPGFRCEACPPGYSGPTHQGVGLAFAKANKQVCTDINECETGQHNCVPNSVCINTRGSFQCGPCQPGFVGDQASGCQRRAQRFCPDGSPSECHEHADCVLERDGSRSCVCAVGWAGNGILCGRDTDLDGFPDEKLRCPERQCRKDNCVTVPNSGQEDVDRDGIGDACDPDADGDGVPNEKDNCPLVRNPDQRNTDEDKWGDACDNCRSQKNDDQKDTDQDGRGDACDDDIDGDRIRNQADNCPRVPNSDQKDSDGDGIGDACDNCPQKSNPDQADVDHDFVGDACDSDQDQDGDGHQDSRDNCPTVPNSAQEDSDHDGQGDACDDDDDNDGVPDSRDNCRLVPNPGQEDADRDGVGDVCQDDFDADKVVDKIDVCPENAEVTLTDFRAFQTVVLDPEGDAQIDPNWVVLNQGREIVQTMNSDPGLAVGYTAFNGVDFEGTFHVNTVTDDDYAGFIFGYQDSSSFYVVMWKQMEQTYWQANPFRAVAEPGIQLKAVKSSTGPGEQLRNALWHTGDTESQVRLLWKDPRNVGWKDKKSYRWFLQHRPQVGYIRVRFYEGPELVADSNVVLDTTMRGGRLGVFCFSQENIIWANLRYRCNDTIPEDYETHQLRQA

Results on 1 substance are retold here after PMC6249252, “COMP and TSP-4 interact specifically with the novel GXKGHR motif only found in fibrillar collagens” (Scientific Reports, 2018).

On to “cartilage oligomeric matrix protein (COMP), wild type, pentameric (from UniProt P49747 21-757) (natural protein)”, for which the Kd worked out at 3.57 nM.
